Values of other authors, collected in paper PMC6018602, “The virulence factor LecB varies in clinical isolates: consequences for ligand binding and drug discovery” (Chemical Science, 2016).

Chains of the proteins cited; added tags and fusions are not shown.
UniProt Q9HYN5, entry or part of it: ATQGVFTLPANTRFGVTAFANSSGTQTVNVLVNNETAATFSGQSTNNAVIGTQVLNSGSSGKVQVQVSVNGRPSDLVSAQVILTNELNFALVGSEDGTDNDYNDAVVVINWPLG

Biological target: LecBPAO1 (Pseudomonas aeruginosa, UniProt Q9HYN5)
Conditions: ITC; cited from earlier work

Compound: CO[C@H]1O[C@H](CO)[C@@H](O)[C@H](O)[C@@H]1O [Compound 5, methyl α-D-mannoside]
- ΔG (LecBPAO1): -5.66 kcal/mol
